From ChEMBL document CHEMBL4613275, “Sulfonimide and Amide Derivatives as Novel PPARα Antagonists: Synthesis, Antiproliferative Activity, and Docking Studies” (ACS Med Chem Lett, 2020)
The source made the active and inactive calls. No cut-off for these calls is given here.

By UniProt entry, the sequences of proteins in these tests, tags left out. Where a name states a change or a piece, a line headed by the entry shows the natural chain unless it says otherwise.
UniProt P37231: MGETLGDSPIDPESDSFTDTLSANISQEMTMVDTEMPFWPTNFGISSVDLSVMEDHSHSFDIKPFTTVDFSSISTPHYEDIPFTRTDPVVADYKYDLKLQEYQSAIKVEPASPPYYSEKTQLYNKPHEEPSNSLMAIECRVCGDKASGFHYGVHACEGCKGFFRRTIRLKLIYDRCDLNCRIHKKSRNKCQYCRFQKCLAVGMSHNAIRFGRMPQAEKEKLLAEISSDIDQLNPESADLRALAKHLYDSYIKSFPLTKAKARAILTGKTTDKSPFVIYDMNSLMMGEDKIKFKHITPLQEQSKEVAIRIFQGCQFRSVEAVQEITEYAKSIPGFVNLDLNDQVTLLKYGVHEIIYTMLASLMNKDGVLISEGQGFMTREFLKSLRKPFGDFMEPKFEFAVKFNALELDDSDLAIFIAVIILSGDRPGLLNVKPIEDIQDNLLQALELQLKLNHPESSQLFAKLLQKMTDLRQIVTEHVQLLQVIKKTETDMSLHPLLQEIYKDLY

Molecular target: Peroxisome proliferator-activated receptor gamma (Homo sapiens, UniProt P37231)
Experiment: Effect on GAL4-tagged human PPARgamma LBD expressed in human HepG2 cells incubated for 20 to 22 hrs by luciferase reporter gene assay
Format: cell-based

Activity, inactive:
CC(C)(Oc1ccc(CCOc2ccc(/N=N/c3ccccc3)cc2)cc1)C(N)=O, Cc1ccc(S(=O)(=O)NC(=O)C(C)(C)Oc2ccc(CCOc3ccc(/N=N/c4ccccc4)cc3)cc2)cc1, CC(=O)Nc1ccc(S(=O)(=O)NC(=O)C(C)(C)Oc2ccc(CCOc3ccc(/N=N/c4ccccc4)cc3)cc2)cc1, COc1ccc(S(=O)(=O)NC(=O)C(C)(C)Oc2ccc(CCOc3ccc(/N=N/c4ccccc4)cc3)cc2)cc1, CCCCNC(=O)C(C)(C)Oc1ccc(CCOc2ccc(NC(=O)Nc3ccccc3)cc2)cc1, CCCCNC(=O)C(C)(C)Oc1ccc(CCOc2ccc(/N=N/c3ccccc3)cc2)cc1, CC(C)(Oc1ccc(CCOc2ccc(/N=N/c3ccccc3)cc2)cc1)C(=O)NS(=O)(=O)c1ccc(NC(=O)c2ccccc2)cc1, CC(C)(Oc1ccc(CCOc2ccc(/N=N/c3ccccc3)cc2)cc1)C(=O)NCc1ccccc1
